The assay has as its target Choline kinase alpha (Homo sapiens, UniProt P35790). The assay can be described thus: Ex vivo inhibitory concentration against human choline kinase.

By UniProt entry, the sequences of proteins in these tests, tags left out.
UniProt P35790, whole entry: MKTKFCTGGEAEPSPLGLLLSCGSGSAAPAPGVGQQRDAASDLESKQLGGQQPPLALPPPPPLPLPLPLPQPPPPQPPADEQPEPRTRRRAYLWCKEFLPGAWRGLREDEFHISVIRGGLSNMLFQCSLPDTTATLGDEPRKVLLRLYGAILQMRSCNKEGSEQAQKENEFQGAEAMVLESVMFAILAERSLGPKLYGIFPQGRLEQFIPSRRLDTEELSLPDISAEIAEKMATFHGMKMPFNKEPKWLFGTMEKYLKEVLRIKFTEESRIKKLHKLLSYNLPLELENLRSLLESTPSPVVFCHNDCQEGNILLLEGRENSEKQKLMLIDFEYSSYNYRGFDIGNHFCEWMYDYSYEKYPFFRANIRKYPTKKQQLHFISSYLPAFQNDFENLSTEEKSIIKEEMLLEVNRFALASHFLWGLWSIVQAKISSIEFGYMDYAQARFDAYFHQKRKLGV

IC50 data for one compound are collected here from ChEMBL document CHEMBL1144422, “Symmetrical bis-quinolinium compounds: new human choline kinase inhibitors with antiproliferative activity against the HT-29 cell line” (J Med Chem, 2005).

In turn, `CN(c1ccc(Cl)cc1)c1cc[n+](Cc2cccc(-c3cccc(C[n+]4ccc(N(C)c5ccc(Cl)cc5)c5ccccc54)c3)c2)c2ccccc12` yielded an IC50 of 2100 nM.
